Details: male, human, pbmc

## C[C@@]1(F)[C@H](O)[C@@H](COP(=O)(O)OP(=O)(O)OP(=O)(O)O)O[C@H]1n1cnc2c(=O)[nH]c(N)nc21 [AT-9010]
  half-life at 10 μM: 22 h
